Entries after “also recorded” stand apart in the source; their conditions may differ.

The values that follow come from patent US10465009B2, “BCMA antigen binding proteins” (Amgen Inc., priority 2012, dated 2019).

Assay [1] deals with H929 cells. The assay can be described thus: Internalization assay (ArrayScan spot count) in H929 cells. The format is cell-based, human. Conditions: 10 μg/mL, 0-2 hours at 37° C. As to the method: H929 myeloma tumor cells were cultured in growth medium (RPMI 1640, 10% FBS, MEM non-essential Amino Acids, HEPES, beta-mercaptoethanol, Pen/Strep, L-glutamine, sodium pyruvate, gentamicin). The H929 cells were collected into two 3-ml FACS tubes at approximately 500,000 cells per tube and washed once with assay medium (PBS containing 2% FBS). […] After incubation at 4° C. for 30 minutes, the cells were washed once with assay medium. A cocktail of anti-human IgG, Alexa 488 (Molecular Probes Inc., Eugene, Oreg. Catalog# A11013 at a 1:1,000 dilution in assay medium) and Hoechst 33342 (Molecular Probes Inc., Eugene, Oreg. Catalog# H21492 at a 1:2000 dilution in assay medium) was added to the cells. […] The internalization rate was quantified on an ArrayScan V^TI HCS reader (version 6, Cellomics, Thermo Fisher Scientific, Pittsburgh, Pa.) with BioApplication “Spot Detector” algorithm employing a 40× objective. At least 200 cells were counted in each well.
The output parameter algorithm of ArrayScan was “SpotCountPerObjectCh2.” The results were reported as total spot count per 200 cells. […] The spot counts were expressed as the mean±standard error of the mean (SEM) for duplicate measurements (n=2). […] The half-life for internalization was calculated using one-phase exponential association from GraphPad™ Prism. […]

The test system of assay [2] is U266 luciferase-labeled myeloma cells. The assay can be described thus: U266-luc bone-tropic xenograft model. The format is in vivo, NSG mice. The protocol: In an additional myeloma bone-tropic xenograft model similar to that above, U266 luciferase-labeled myeloma cells that express an average of 9,000 BCMA sites per cell were administered intravenously (1×10^6 cells) into NSG mice. Twenty eight days after tumor inoculation, tumor-bearing animals were randomized based on hind limb bioluminescence (tumor burden) into groups of ten animals each and dosed intravenously or intraperitoneally as denoted by the red Rx symbol. A blinded dosing study of 2A1CV5-MCC-DM1, unconjugated 2A1CV5 and PBS employing a single dose of 250 ug DM1/kg (10 mg Ab/kg) administered at day 28 was performed in this established bone-tropic tumor model. Following euthanasia, the animals were radiographed. The hind limbs were disarticulated, fixed in 10% neutral buffered formalin and decalcified. Bones were subsequently processed, embedded, sectioned and a single representative bone from each animal was stained by H&E, TRAP stain and for huCD138 expression (IHC). Bone sections were examined microscopically to determine if residual disease (huCD138+ cells) were present and to estimate the extent of the surface of the medullary cavity and bone spicules that was covered by TRAP+ osteoclasts.

B1: 2A1: parental fully human anti-huBCMA mAb, Vh SEQ ID NO:214, Vl SEQ ID NO:248; heavy chain SEQ ID NO:287, light chain 288 (antibody)
heavy: EVQLVESGGGLVKPGRSLRLSCTASGFTFGDYALSWFRQAPGKGLEWVGVSRSKAYGGTTDYAASVKGRFTISRDDSKSFAYLQMNSLKTEDTAVYYCCSSGYSSGWTPFDYWGQGTLVTVSSASTKGPSVFPLAPSSKSTSGGTAALGCLVKDYFPEPVTVSWNSGALTSGVHTFPAVLQSSGLYSLSSVVTVPSSSLGTQTYICNVNHKPSNTKVDKKV[omitted - human IgG1 Fc]
light: QSVLTQPPSASGTPGQRVTISCSGSSSNIGSNTVNWYQQLPGTAPKLLIFNYHQRPSGVPDRFSGSKSGSSASLAISGLQSEDEADYYCAAWDDSLNGWVFGGGTELTVLGQPKAAPSVTLFPPSSEELQANKATLVCLISDFYPGAVTVAWKADSSPVKAGVETTTPSKQSNNKYAASSYLSLTPEQWKSHRSYSCQVTHEGSTVEKTVAPTECS
B1: the “internalization following binding to BCMA on H929 cells” value in assay [1] is reported as “readily internalized”.

B2: 2A1CV5-MCC-DM1 (conjugate)
heavy: EVQLVESGGGLVKPGGSLRLSCAASGFTFGDYALSWFRQAPGKGLEWVGVSRSKAYGGTTDYAASVKGRFTISRDDSKSTAYLQMNSLKTEDTAVYYCASSGYSSGWTPFDYWGQGTLVTVSSASTKGPSVFPLAPSSKSTSGGTAALGCLVKDYFPEPVTVSWNSGALTSGVHTFPAVLQSSGLYSLSSVVTVPSSSLGTQTYICNVNHKPSNTKVDKKV[omitted - human IgG1 Fc]
light: QSVLTQPPSASGTPGQRVTISCSGSSSNIGSNTVNWYQQLPGTAPKLLIFNYHQRPSGVPDRFSGSKSGSSASLAISGLQSEDEADYYCAAWDDSLNGWVFGGGTKLTVLGQPKAAPSVTLFPPSSEELQANKATLVCLISDFYPGAVTVAWKADSSPVKAGVETTTPSKQSNNKYAASSYLSLTPEQWKSHRSYSCQVTHEGSTVEKTVAPTECS
In the case of B2, in assay [2] (10 mg Ab/kg IV at day 63 in animals first given PBS or unconjugated 2A1CV5), the “antitumor effect of late treatment” value is on record as “robust tumor regression”. Besides, the “residual disease in bone (histology) after subsequent treatment” value in assay [2] (animals treated on Day 28 with 2A1CV or vehicle, then treated on Days 63 and 84) is “completely cured of their disease”. Also, the “antitumor effect (hind limb bioluminescence)” value in assay [2] (single dose 250 ug DM1/kg (10 mg Ab/kg) at day 28, IV or IP) was “significant tumor regression; also recorded: Complete tumor regression”. The “residual disease in bone (histology, huCD138, TRAP)” value in assay [2] (single injection, IV or IP route) is “completely cured mice of their disease”.
